# Source: ChEMBL document CHEMBL1126106, “O3-(2-carbomethoxyallyl) ethers of opioid ligands derived from oxymorphone, naltrexone, etorphine, diprenorphine, norbinaltorphimine, and naltrindole. Unexpected O3-dealkylation in the opioid radioligand displacement assay” (1992)
# By UniProt entry, the sequences of proteins in these tests, tags left out. Where a name states a change or a piece, a line headed by the entry shows the natural chain unless it says otherwise.
# UniProt P97266, whole entry, looked up: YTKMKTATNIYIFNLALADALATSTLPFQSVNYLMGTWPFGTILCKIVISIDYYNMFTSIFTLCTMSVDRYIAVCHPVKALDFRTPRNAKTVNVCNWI
# UniProt P41144: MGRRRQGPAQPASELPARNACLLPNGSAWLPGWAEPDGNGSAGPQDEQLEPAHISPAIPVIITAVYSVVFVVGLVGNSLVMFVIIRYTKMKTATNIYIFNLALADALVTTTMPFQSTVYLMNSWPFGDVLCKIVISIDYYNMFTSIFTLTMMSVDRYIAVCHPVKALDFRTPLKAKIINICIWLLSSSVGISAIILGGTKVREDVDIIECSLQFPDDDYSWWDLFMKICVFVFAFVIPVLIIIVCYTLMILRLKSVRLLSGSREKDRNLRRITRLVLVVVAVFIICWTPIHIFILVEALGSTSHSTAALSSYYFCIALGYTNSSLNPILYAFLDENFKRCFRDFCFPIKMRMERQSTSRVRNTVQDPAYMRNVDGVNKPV
# UniProt P41145: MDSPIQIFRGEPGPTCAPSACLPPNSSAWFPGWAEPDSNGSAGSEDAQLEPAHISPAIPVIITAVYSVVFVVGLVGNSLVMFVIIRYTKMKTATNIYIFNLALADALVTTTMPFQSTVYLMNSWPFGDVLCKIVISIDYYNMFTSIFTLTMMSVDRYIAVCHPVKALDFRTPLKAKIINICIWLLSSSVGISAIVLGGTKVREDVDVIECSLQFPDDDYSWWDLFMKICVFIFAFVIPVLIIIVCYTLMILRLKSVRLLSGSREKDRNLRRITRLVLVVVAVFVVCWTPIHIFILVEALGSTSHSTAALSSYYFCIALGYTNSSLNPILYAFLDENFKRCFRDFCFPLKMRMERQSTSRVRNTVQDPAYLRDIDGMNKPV
# UniProt P41143, whole entry, looked up: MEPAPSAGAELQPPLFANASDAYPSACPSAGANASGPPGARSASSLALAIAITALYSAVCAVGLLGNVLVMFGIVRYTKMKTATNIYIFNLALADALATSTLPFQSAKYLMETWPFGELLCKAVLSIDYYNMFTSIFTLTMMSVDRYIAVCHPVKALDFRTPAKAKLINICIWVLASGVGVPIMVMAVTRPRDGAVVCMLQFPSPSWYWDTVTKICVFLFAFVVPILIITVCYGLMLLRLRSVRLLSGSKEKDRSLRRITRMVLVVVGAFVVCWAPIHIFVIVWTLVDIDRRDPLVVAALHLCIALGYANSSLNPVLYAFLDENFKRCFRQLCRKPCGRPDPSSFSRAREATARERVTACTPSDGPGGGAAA
# UniProt P35372, whole entry, looked up: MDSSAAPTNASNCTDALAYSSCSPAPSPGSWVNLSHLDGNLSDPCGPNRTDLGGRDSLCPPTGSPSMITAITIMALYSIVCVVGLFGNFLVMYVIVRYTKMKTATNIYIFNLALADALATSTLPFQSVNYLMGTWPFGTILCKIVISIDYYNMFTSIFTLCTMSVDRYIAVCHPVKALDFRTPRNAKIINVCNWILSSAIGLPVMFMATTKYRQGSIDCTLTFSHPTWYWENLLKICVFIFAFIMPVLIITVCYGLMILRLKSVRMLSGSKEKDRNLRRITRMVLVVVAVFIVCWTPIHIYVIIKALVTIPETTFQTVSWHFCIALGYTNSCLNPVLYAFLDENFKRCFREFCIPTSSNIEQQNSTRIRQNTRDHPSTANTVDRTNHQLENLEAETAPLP
# Columns and labels:
# Mu-type opioid receptor = Mu-type opioid receptor (Cavia porcellus, UniProt P97266); assay: Inhibition of opioid receptor mu by displacing 1 nM [3H]DAGO in guinea pig brain membrane
# [1] = target: Kappa-type opioid receptor (Cavia porcellus, UniProt P41144); assay: Inhibition of opioid receptor kappa by displacing 0.5 nM [3H]bremazocine in guinea pig brain membrane
# [2] = target: Opioid receptors; mu/kappa/delta (Homo sapiens, UniProt P41145+P41143+P35372); assay: Inhibition of total opioid receptor by displacing 0.5 nM [3H]bremazocine in guinea pig brain membrane
Structure (SMILES),IC50 (Mu-type opioid receptor),IC50 [1],IC50 [2]
C=C(COc1ccc2c3c1O[C@H]1C(=O)CC[C@@]4(O)[C@@H](C2)N(C)CC[C@]314)C(=O)OC,2.4 nM,880 nM,110 nM
CO[C@]12CC[C@@]3(C[C@@H]1C(C)(C)O)[C@H]1Cc4ccc(O)c5c4[C@@]3(CCN1CC1CC1)[C@H]2O5,0.71 nM,1.8 nM,
COC(=O)C(C)COc1ccc2c3c1O[C@H]1C(=O)CC[C@@]4(O)[C@@H](C2)N(CC2CC2)CC[C@]314 (stereo partly drawn) [listing 1 of 2 here],840 nM,> 3000 nM,
COC(=O)C(C)COc1ccc2c3c1O[C@H]1C(=O)CC[C@@]4(O)[C@@H](C2)N(CC2CC2)CC[C@]314 (stereo partly drawn) [listing 2 of 2 here],,,> 3000 nM
C=C(COc1ccc2c3c1O[C@H]1c4[nH]c5c(c4C[C@@]4(O)[C@@H](C2)N(CC2CC2)CC[C@]314)C[C@@]1(O)[C@H]2Cc3ccc(OCC(=C)C(=O)OC)c4c3[C@@]1(CCN2CC1CC1)[C@H]5O4)C(=O)OC [listing 1 of 2 here],47 nM,8.3 nM,
C=C(COc1ccc2c3c1O[C@H]1C(=O)CC[C@@]4(O)[C@@H](C2)N(CC2CC2)CC[C@]314)C(=O)OC,1.5 nM,19 nM,10.3 nM
C=C(COc1ccc2c3c1O[C@H]1c4[nH]c5ccccc5c4C[C@@]4(O)[C@@H](C2)N(CC2CC2)CC[C@]314)C(=O)OC [listing 1 of 2 here],96 nM,175 nM,
C=C(COc1ccc2c3c1O[C@H]1[C@H](OCC(=C)C(=O)OC)CC[C@@]4(O)[C@@H](C2)N(CC2CC2)CC[C@]314)C(=O)OC,2.8 nM,42 nM,14 nM
C=C(COc1ccc2c3c1O[C@H]1[C@H](O)CC[C@@]4(O)[C@@H](C2)N(CC2CC2)CC[C@]314)C(=O)OC,2.8 nM,47 nM,27 nM
C=C(COc1ccc2c3c1O[C@H]1c4[nH]c5ccccc5c4C[C@@]4(O)[C@@H](C2)N(CC2CC2)CC[C@]314)C(=O)OC [listing 2 of 2 here],,,80 nM
C=C(COc1ccc2c3c1O[C@H]1c4[nH]c5c(c4C[C@@]4(O)[C@@H](C2)N(CC2CC2)CC[C@]314)C[C@@]1(O)[C@H]2Cc3ccc(OCC(=C)C(=O)OC)c4c3[C@@]1(CCN2CC1CC1)[C@H]5O4)C(=O)OC [listing 2 of 2 here],,,22 nM
